Values quoted from earlier work in EP0623345A1, “New morphine formulations for use by iontophoretic adminstration” (dated 1994).

What was measured:
[1] = iv bolus injection
[2] = after application of electric current, Ashburn et al

morphine
time after injection to maximum respiratory depression [1]: at least 10 minutes
time to clinically effective blood levels of morphine [2]: 15 to 20 min
